Patent US20050009840A1 (SUGEN, INC., priority 2003, published 2005)

Chains of the proteins cited; added tags and fusions are not shown. Residues count along the entry.
UniProt P08581, 1078-1345 limits assumed: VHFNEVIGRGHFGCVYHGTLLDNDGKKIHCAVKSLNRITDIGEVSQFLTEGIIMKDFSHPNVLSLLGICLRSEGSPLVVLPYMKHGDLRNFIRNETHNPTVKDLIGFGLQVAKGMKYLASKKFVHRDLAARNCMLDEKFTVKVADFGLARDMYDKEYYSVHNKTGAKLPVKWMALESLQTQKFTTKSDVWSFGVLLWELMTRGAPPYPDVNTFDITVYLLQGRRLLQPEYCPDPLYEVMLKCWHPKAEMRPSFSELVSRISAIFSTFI

These compounds were tested against T1, Met kinase domain (GST fusion protein) (Homo sapiens, UniProt P08581) (assay: Met transphosphorylation assay (ELISA, poly(glu-tyr) substrate);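 note: Cell-free ELISA with plate-bound poly(Glu:Tyr 4:1) phosphorylated by GST-fused Met kinase domain plus ATP and Mn2+, phosphotyrosine detected by anti-phosphotyrosine antibody with HRP and ABTS read-out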).
T1 construct: Purified GST fusion protein containing the Met kinase domain
Type: biochemical
Method: Met Transphosphorylation Assay
• 1. […] PBS, Gibco Catalog # 450-1300EB • 4. 50 mM HEPES • 5. […] TBST Buffer. • 8. 10% aqueous (MilliQue H2O) DMSO. • 9. […] 4× ATP Reaction Mixture: for 10 mL, mix 0.4 mL 1 M manganese chloride and 0.02 mL 0.1 M ATP in 9.56 mL dH2O. • 12. 4× Negative Controls Mixture: for 10 mL, mix 0.4 mL 1 M manganese chloride in 9.6 mL dH2O. • 13. […] 500 mM EDTA. • 15. […] Goat anti-rabbit horseradish peroxidase conjugated antibody, Biosource, Inc. • 18. ABTS Solution: for 1 L, mix 19.21 g citric acid, 35.49 g Na2HPO4 and 500 mg ABTS with sufficient dH2O to make 1 L. • 19. […] 0.2 M HCl Procedure: • 1. […] Block plate with 150 μL of 5% BSA/PBS for 60 min. • 3. […] Add 50 μl of the diluted kinase to all wells. (Purified kinase is diluted with Kinase Dilution Buffer. Final concentration should be 10 ng/well.) • 5. Add 25 μL of the test compound (in 4% DMSO) or DMSO alone (4% in dH2O) for controls to plate. • 6. Incubate the kinase/compound mixture for 15 minutes. • 7. Add 25 μL of 40 mM MnCl2 to the negative control wells. • 8. Add 25 μL ATP/MnCl2 mixture to the all other wells (except the negative controls). Incubate for 5 min. • 9. Add 25 μL 500 mM EDTA to stop reaction. • 10. Wash plate 3× with TBST. • 11. Add 100 μL rabbit polyclonal anti-Ptyr diluted 1:10,000 in Antibody Dilution Buffer to each well. Incubate, with shaking, at room temperature for one hour. • 12. Wash plate 3× with TBST. • 13. […] Add 100 μL per well and incubate at room temperature, with shaking, for one hour. • 14. Wash plate 1× with PBS. • 15. Add 100 μl of ABTS/H2O2 solution to each well. • 16. If necessary, stop the development reaction with the addition of 100 μl of 0.2M HCl per well. • 17.

| SMILES | IC50 |
| --- | --- |
| Nc1ncc(-c2cccc(C(=O)N3CCC(N4CCCC4)CC3)c2)nc1OCc1c(F)ccc(F)c1Cl [II-53, {3-[5-Amino-6-(2-chloro-3,6-difluoro-benzyloxy)-pyrazin-2-yl]-phenyl}-(4-pyrrolidin-1-yl-piperidin-1-yl)-methanone] | 830 nM |
| CN1CCC(NC(=O)c2cccc(-c3cnc(N)c(OCc4c(F)ccc(F)c4Cl)n3)c2)CC1 [II-56, 3-[5-Amino-6-(2-chloro-3,6-difluoro-benzyloxy)-pyrazin-2-yl]-N-(1-methyl-piperidin-4-yl)-benzamide] | 900 nM |
| CC(Oc1nc(-c2cccc(C(=O)N3CCC[C@@H]3CN3CCCC3)c2)cnc1N)c1c(Cl)ccc(F)c1Cl (stereo partly drawn) [II-86, (3-{5-Amino-6-[1-(2,6-dichloro-3-fluoro-phenyl)-ethoxy]-pyrazin-2-yl}-phenyl)-[(2R)-2-pyrrolidin-1-ylmethyl-pyrrolidin-1-yl)-methanone] | 150 nM |
| CC(Oc1nc(-c2cccc(C(=O)N3CCC[C@H]3CN3CCCC3)c2)cnc1N)c1c(Cl)ccc(F)c1Cl (stereo partly drawn) [II-88, (3-{5-Amino-6-[1-(2,6-dichloro-3-fluoro-phenyl)-ethoxy]-pyrazin-2-yl}-phenyl)-[(2S)-2-pyrrolidin-1-ylmethyl-pyrrolidin-1-yl)-methanone] | 170 nM |
